For one compound, IC50 results are on record in patent publication US20080045492A1, “Mitotic Kinesin Inhibitors” (priority 2004, published 2008).

Each structure is given as a SMILES string. pIC50: −log10 of the molar value. Bounds are passed on as bounds.

In general, pIC50 refers to −log10 of the IC50, conventionally taken in molar units. The low end stands for a high IC50, the high end for a low IC50.

In the assay the target is T1, human KSP motor domain (KSP(367H)) (Homo sapiens, UniProt P52732).
T1 construct: were used to amplify the motor domain and the neck linker region; made in house; host or cells: E. coli BL21 (DE3), pRSETa
T1 sequence (P52732 18-359 limits assumed): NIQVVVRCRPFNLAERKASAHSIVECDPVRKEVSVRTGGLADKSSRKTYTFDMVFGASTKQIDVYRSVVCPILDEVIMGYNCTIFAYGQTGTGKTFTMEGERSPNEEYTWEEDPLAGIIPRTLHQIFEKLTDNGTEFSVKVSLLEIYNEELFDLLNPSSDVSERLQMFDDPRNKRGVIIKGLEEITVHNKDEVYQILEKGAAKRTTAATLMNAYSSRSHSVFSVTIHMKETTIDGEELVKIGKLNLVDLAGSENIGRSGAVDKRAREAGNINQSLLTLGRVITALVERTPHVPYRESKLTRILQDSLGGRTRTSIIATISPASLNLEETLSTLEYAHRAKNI
Nature of the assay: Kinesin ATPase In Vitro Assay. The class given is biochemical. As to the method:
I. Kinesin ATPase In Vitro Assay
The N-terminal primer 5′-[…] (SEQ. ID. NO.: 1) and the C-terminal primer 5′-[…] […] […] The PCR products were digested with AseI and XhoI, ligated into the NdeI/XhoI digestion product of pRSETa (Invitrogen) and transformed into E. coli BL21 (DE3).
Cells were grown at 37° C. to an OD600 of 0.5. After cooling the culture to room temperature expression of KSP was induced with 100 μM IPTG and incubation was continued overnight. Cells were pelleted by centrifugation and washed once with ice-cold PBS. Pellets were flash-frozen and stored −80° C. […]
The kinesin motor domain is incubated with microtubules, 1 mM ATP (1:1 MgCl2: Na-ATP), and compound at 23° C. in buffer containing 80 mM K-HEPES (pH 7.0), 1 mM EGTA, 1 mM DTT, 1 mM MgCl2, and 50 mM KCl. […] Free phosphate from the ATP hydrolysis reaction is measured via a quinaldine red/ammonium molybdate assay by adding a […] of quench C (e.g., to a mixture of 40 μl reaction volume+40 μl stop buffer is then added 120 μl quench C). […] Quench C is a 2:1 ratio of quench A:quench B The reaction is incubated for 5-10 minutes at 23° C., and the absorbance of the phospho-molybdate complex is measured at 540 nm.

As for `CC(=O)C1=NN(c2cc(C)ccc2F)CC1(CCCN1CCN(C(C)=O)CC1)c1ccccc1` (racemic) [Compound 2-2, (±)-1-[4-[3-(4-acetylpiperazin-1-yl)propyl]-1-(2-fluoro-5-methylphenyl)-4-phenyl-4,5-dihydro-1H-pyrazol-3-yl]ethanone], the pIC50 is ≥ 4.30.
